Binding of CDR-mutated scFvs to a peptide of the spike HR2 region

The measurements come from Li et al. 2023 (doi:10.1038/s41467-023-39022-2) through the FLAb antibody collection.

The target is the same throughout: PDVDLGDISGINAS, from the HR2 region of SARS-CoV-2 spike.

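Phage display of a naive human antibody library on the peptide gave the parent. These sequences belong to a second round, designed from the earlier measurements on random variants of the parent. Group labels follow the data file (Ctrl: baseline library sampled from a position-specific scoring matrix, with some repeated check sequences; GP: Gaussian process model; HC: hill climbing; Gen: genetic algorithm; Gibbs: Gibbs sampling; a sequence that several methods proposed may carry one label only). The assay is AlphaSeq: two haploid yeast populations carry antibody and antigen on their surface. The frequency of each diploid, read from paired DNA barcodes, reflects how well the two displayed proteins bind. Each replicate has its own calibration line, from reference interactions of the BCL2 family. Each pool was mated in six replicate cultures.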

Parent: Ab-14, a human scFv built as VH, a 15-residue (Gly4Ser)3 linker, VL. Only the CDRs of the light chain vary.
VH: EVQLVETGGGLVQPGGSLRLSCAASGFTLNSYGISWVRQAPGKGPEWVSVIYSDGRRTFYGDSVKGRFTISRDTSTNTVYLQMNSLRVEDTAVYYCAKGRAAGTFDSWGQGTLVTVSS
VL: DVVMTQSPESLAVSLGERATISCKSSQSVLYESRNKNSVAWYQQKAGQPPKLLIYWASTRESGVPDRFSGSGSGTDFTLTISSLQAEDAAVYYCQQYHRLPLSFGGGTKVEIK

Each variant is given by its three light chain CDRs, as the data file delimits them; those of the parent are KSSQSVLYESRNKNSVA, WASTRES, QQYHRLPLS. This list holds designs with at most six substitutions. The Kd shown is the geometric mean over detected replicates; a lower Kd is a better binder. A pair that was not seen in any replicate is written "nd"; this usually means weak binding, but a binder can also be missed.

* KSSQSVLYESFNKNSVA / PASTRES / QQYHRMPLS [Ctrl] = nd (0 of 6 replicates)
* KSSQGELYESRNKNSVA / WASERES / QQYHYLPLS [Ctrl] = 52 nM (4 of 6 replicates)
* KLSQSELYESRNSNSVA / NASYRES / QQYHRLPLS [GP_Gen] = 820 pM (6 of 6 replicates)
* KSSQSVLYESRNKNSVA / EASTRES / QQYHRNPLS [Ctrl] = nd (0 of 6 replicates)
* KLPQSTLYESRQKNSVA / WASTRES / QQYHRLPLS [GP_HC] = 1.4 nM (6 of 6 replicates)
* KSSQHVLYESRNKNSVA / SASTRES / QWYHRLPLS [Ctrl] = 15 nM (6 of 6 replicates)
* KCLQSVLYESRNKNSVA / HASTRED / QQYGRLPLS [GP_HC] = 2.4 nM (6 of 6 replicates)
* KSSQSVLIEERNKNSVA / WASTREV / QTYYRLPLS [Ctrl] = nd (0 of 6 replicates)
* KVQQSYLYESRNKNSVA / NASQRES / QQYHRLPLS [GP_Gen] = 530 pM (6 of 6 replicates)
* KLSQSWLYESRNKNSVA / QASTRES / QDYHRLPLS [GP_Gen] = 970 pM (6 of 6 replicates)
* KSSISYLYESGNKNSVA / DASTRES / QQYHRLPLS [GP_HC] = 4.1 nM (6 of 6 replicates)
* KSSQSVLYESSNKVSVA / WASTRES / QQYHRLPLS [Ctrl] = 390 nM (1 of 6 replicates)
* KSSPINLYNSRNKNSVA / WASTRES / QQYHRLPLS [Ctrl] = nd (0 of 6 replicates)
* KLSQSVLYESRNKNSVA / NASQRED / QQYHRLPLS [GP_Gen] = 640 pM (6 of 6 replicates)
* KHSQSVEYESRDKNSVA / MASTRMS / QQYHRLPLS [GP_Gibbs] = 210 nM (1 of 6 replicates)
* KLEQSWLYESRNKNSVA / NASTRLS / QQYHRLPLS [GP_Gen] = 590 pM (6 of 6 replicates)
* KWSQSVLEESRTKNSVA / TASTRES / QQQHRLPLS [Ctrl] = 23 nM (6 of 6 replicates)
* KVSQSVLYESRNKNSVA / NASTRLS / QQYHRLPLS [GP_Gen] = 930 pM (6 of 6 replicates)
* KLPQSTLYESRNQNSVA / NASTRES / QQYHRLPLS [GP_HC] = 800 pM (6 of 6 replicates)
* KSSQSLLYESRNKNSVA / DASTRES / QQYHRLPLS [Ctrl] = 3.3 nM (6 of 6 replicates)
* HVSPSVLYESRNGNSVA / NASTRES / QQYHRLPLS [GP_HC] = 610 pM (6 of 6 replicates)
* KSSPSYLYEDRAFNSVA / NASTRES / QQYHRLPLS [GP_Gibbs] = 2.3 nM (6 of 6 replicates)
* HSSQSWLYESRNKNSVA / GASTRES / QQYHRLPLS [GP_HC] = 350 pM (6 of 6 replicates)
* KSSQSVLEESRNLNSIA / WASTRES / DQLHRLPLH [Ctrl] = 13 nM (3 of 6 replicates)
* KFSQSMLYESRNKNSVA / NASTRES / QQYHRLPLS [GP_Gen] = 2.9 nM (6 of 6 replicates)
* KSSQSVDYQSRNKNSVA / DASTRES / QQYHRLPLS [GP_HC] = 1.1 nM (6 of 6 replicates)
* KLSQSVLYESRNKNAVA / GASTRES / QQYHRLPLS [GP_Gen] = 250 pM (6 of 6 replicates)
* KQSQSVLYESRNKNNVA / DASTRES / QQYHRLPLS [GP_Gen] = 360 pM (6 of 6 replicates)
* KMSQSVEVLSRNKNSVA / NASTREM / QQYHRLPLS [GP_Gibbs] = 14 nM (6 of 6 replicates)
* KLPQSTLYESRMKNSVA / NASTRES / QQYHRLPLS [GP_Gen] = 1.5 nM (6 of 6 replicates)
* KSSQSYHYESRNKNNVA / GASTRES / QQYHRLPLS [GP_HC] = 900 pM (6 of 6 replicates)
* KSSNSVLYESRNKNSVA / HASTRES / QQYHRLPLS [Ctrl] = 10 nM (6 of 6 replicates)
* KMSQSVLMENRNKNSVA / DASLRES / QQYHRLPLS [GP_HC] = 720 pM (6 of 6 replicates)
* KLSGSDLYESRNKNSVA / EASTRES / QQYHRLPLS [GP_Gen] = 880 pM (6 of 6 replicates)
* KSSQSFLYESRWKNSVA / GASTRES / QQYHRLPLS [GP_HC] = 5.4 nM (6 of 6 replicates)
* KISQSVLYESRNKNSVA / WASTRES / QQYHVLPLS [Ctrl] = 6.6 nM (6 of 6 replicates)
* KLYNSHLYESRQKNSVA / WASTRES / QQYHRLPLS [GP_HC] = 67 nM (6 of 6 replicates)
* KVSQSVVYEGRNKNSVA / DASTRED / QQYHRLPLS [GP_HC] = 1.6 nM (6 of 6 replicates)
* KFSQSVLYESRNKNSVA / SASTRES / GQYHRLPLS [Ctrl] = 1.3 nM (6 of 6 replicates)
* HLYQSELYESRMKNSVA / NASTRES / QQYHRLPLS [GP_Gibbs] = 1.6 nM (6 of 6 replicates)
* KLEQSICYESRNKNSVA / NASTRES / QQYHRLPLS [GP_HC] = 2.0 nM (6 of 6 replicates)
* KNSQSVLFESRNKNSVA / DASTRES / QQYHRLPLS [GP_HC] = 1.2 nM (6 of 6 replicates)

For reference, 3 entries of the list once more:

{"CDR-L1": "KLPQSTLYESRMKNSVA", "CDR-L2": "NASTRES", "CDR-L3": "QQYHRLPLS", "group": "GP_Gen", "Kd (apparent)": "1.5 nM", "detected": "6 of 6"}
{"CDR-L1": "KLSQSELYESRNSNSVA", "CDR-L2": "NASYRES", "CDR-L3": "QQYHRLPLS", "group": "GP_Gen", "Kd (apparent)": "820 pM", "detected": "6 of 6"}
{"CDR-L1": "KSSPINLYNSRNKNSVA", "CDR-L2": "WASTRES", "CDR-L3": "QQYHRLPLS", "group": "Ctrl", "Kd (apparent)": "nd", "detected": "0 of 6"}

Values of this round are not directly comparable with the first-round values of the same sequences. The authors averaged sequences with at least three values out of six and counted those with two or fewer as poor binders. Three control strains display no target. For all light chain designs, 4% of the pairings with them gave a signal, with a median of 430 nM and one signal in twenty below 38 nM, so weak values seen in few replicates may be background.